Laboratory results: patent US5916924A, “Remedies for liver diseases” (Meiji Milk Products Co., Ltd., priority 1997, dated 1999)
Counter-ions that a name gives are not always drawn.

Experiments:
[1] = tested on: liver regeneration after partial hepatectomy; experiment: Liver regeneration after 70% partial hepatectomy, BrdU labeling index; format: in vivo, Sprague-Dawley rats; conditions: 70% hepatectomy; crude extract 1 ml/rat or EA-HCl 10 mg/rat
[2] = tested on: hepatic cirrhosis induced by N-nitrosodiethylamine; experiment: Effect on hepatic cirrhosis (2), hepatocirrhosis induced by N-nitrosodiethylamine; format: in vivo, Sprague-Dawley rats

SMILES	significance (Student's t-test) of BrdU labeling index [1]	prevention of hepatic cirrhosis induced by N-nitrosodiethylamine ([2]; oral administration)	formation of nodules, difference from N-nitrosodiethylamine group (Dunnet's test) ([2]; oral, 15 mg/kg)	amount of hydroxyproline, difference from N-nitrosodiethylamine group (t-test) ([2]; oral, 50 mg/kg)	formation of nodules, difference from N-nitrosodiethylamine group (Dunnet's test) ([2]; oral, 50 mg/kg)	amount of hydroxyproline in liver, dose dependence ([2]; oral, 15 and 50 mg/kg)	formation of nodules on liver surface, dose dependence ([2]; oral, 15 and 50 mg/kg)
NCCO [EA-HC1, monoethanolamine-HCl]	** (P < 0.01 (Student's ttest))						
NCCO [ethanolamine, monoethanolamine]		can be prevented	statistically significant	statistically significant	statistically significant	the higher the dose of ethanolamine, the lower the amount of hydroxyproline	the higher the dose of ethanolamine, the less significant the formation of nodules
